The values that follow are results of earlier work, collected in US20060210614A1, “Method of treatment of a metabolic disease using intranasal administration of exendin peptide” (Nastech Pharmaceutical Company Inc., priority 2003, published 2006).

The conditions of this data set: intraduodenal, rats, with 1% (w/v) saline dispersion of polycarbophil; cited from earlier work.

For the substance “9-desglycinamide, 8-arginine vasopressin [DGAVP]”, the “Fold increase in bioavailability compared to aqueous solution without polymer” value was 3-5 fold.
